## Measured affinities in a library of Ab-91 heavy chain variants

The measurements come from Engelhart et al. 2022 (doi:10.1038/s41597-022-01779-4) through the FLAb antibody collection.

Binding partner: SARS-CoV-2 spike HR2 peptide, sequence PDVDLGDISGINAS.

Each scFv is VL, three GGGGS repeats, VH, as in the parent Ab-91, and differs from it in the CDRs of the heavy chain only.
VL: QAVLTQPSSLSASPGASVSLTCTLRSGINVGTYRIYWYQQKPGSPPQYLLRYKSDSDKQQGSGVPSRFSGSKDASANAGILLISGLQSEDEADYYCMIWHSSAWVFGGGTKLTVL
VH: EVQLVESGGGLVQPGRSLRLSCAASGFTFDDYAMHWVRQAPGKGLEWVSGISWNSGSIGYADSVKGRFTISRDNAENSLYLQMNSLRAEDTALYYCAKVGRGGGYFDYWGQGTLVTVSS

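Library AAYL51 holds single substitutions and randomly drawn double and triple substitutions in the CDRs. The assay is AlphaSeq: two haploid yeast populations carry antibody and antigen on their surface. The frequency of each diploid, read from paired DNA barcodes, reflects how well the two displayed proteins bind. Scores were corrected for input abundance and mapped to Kd with protein pairs of known affinity run in the same pool. The assay was run in three technical replicates.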

The parent's heavy chain CDRs are GFTFDDYAMH, GISWNSGSIGYADSVK, VGRGGGYFDY; each variant's own CDRs replace them letter for letter. The read-out is the apparent dissociation constant on a log10 scale (nM): the lower, the stronger. Averages over replicates are reported, and they cover detected replicates only. "n.d." marks a missing value. The strain was present, yet no cells mated with the target were sequenced in that replicate, which points to weak or no binding. Background: pairings of library AAYL51 with three empty control strains gave a value in 21% of cases (median 4.54, 5th percentile 3.26). Values in that range, when seen in few replicates, are hard to tell from nonspecific mating.

CDR-H1 | CDR-H2 | CDR-H3 | replicates, log10 nM | mean, log10 nM
GFTFDDYAMH | GISWNSGSIGIADSVK | VGRGGGYQNY | n.d. / n.d. / n.d. | n.d.
GFYFDDYAEH | GISWNSGSEGYADSVK | VGRGGGYFDY | n.d. / n.d. / n.d. | n.d.
GFTFDDYAMH | GTSWNSGSIGYADSVK | VGRYRGYFDY | 3.27 / n.d. / n.d. | 3.27
GFTFDDYARH | GISWHSGSIGYADSSK | VGRGGGYFDY | n.d. / n.d. / n.d. | n.d.
GFTFDCYAMH | TISWNSGSIGYADSVK | VGKGGGYFDY | n.d. / 3.37 / n.d. | 3.37
GFTFPDYAMK | GISWNSSSIGYADSVK | VGRGGGYFDY | 5.70 / 4.56 / n.d. | 5.13
GFPFDDYAMH | CISWNSGSIGIADSVK | VGRGGGYFDY | 5.69 / n.d. / 5.08 | 5.38
GFTFDDYAMH | GIMWNSGSIGYADSVK | CGRGGGDFDY | n.d. / n.d. / n.d. | n.d.
GFVFDDYAMH | GISWNSGSIGYADSVK | VGSMGGYFDY | n.d. / 6.23 / 4.56 | 5.39
GFLFDDYAMH | GISWNSGSIGYADSVK | VGYGGGYGDY | n.d. / n.d. / n.d. | n.d.
GFTFDRYAMH | GISWRSGSIGYADSVK | VGRGGGHFDY | n.d. / n.d. / n.d. | n.d.
GFTFDDYASH | GISWNSGSIDYADSVK | QGRGGGYFDY | 5.50 / 4.80 / n.d. | 5.15
GFTFDIYAMR | GISWNSGSIGQADSVK | VGRGGGYFDY | n.d. / n.d. / n.d. | n.d.
GFDFDDYAMH | GISINSGSIWYADSVK | VGRGGGYFDY | 3.76 / 4.65 / n.d. | 4.20
GFTFDDYAMH | HISWNSGSIGYADSVK | VGRGGGYFPY | n.d. / n.d. / n.d. | n.d.
GFTFDDYAMH | GISWNSGQIGRADSVK | VGRGGGYFDY | n.d. / n.d. / n.d. | n.d.
GFTFDDYAMH | PIQWNSGSIGYADSVK | VGRGGGYFGY | 3.42 / n.d. / n.d. | 3.42
GFTFDDTAMH | EISWNSGGIGYADSVK | VGRGGGYFDY | n.d. / n.d. / n.d. | n.d.
CFTFDDYAMH | GISWNSGSYGYADSVK | VGRGGGYFDP | 1.20 / 2.09 / 1.81 | 1.70
KFTFDDYAMH | GISWNSGSIGYADSVK | VGRGGQYFSY | 3.66 / 4.20 / n.d. | 3.93
GFTFDDYIMH | GISWNKGSIGYADSVK | VGRGGGYFDN | n.d. / 4.71 / n.d. | 4.71
GKTFKDYAMW | GISWNSGSIGYADSVK | VGRGGGYFDY | n.d. / n.d. / 4.71 | 4.71
GFTFDDYAMH | GMSWNSGSIGYADSVK | VGRMGGYFYY | 4.16 / n.d. / n.d. | 4.16
GRTFDDYAMH | GNSWNSGSIGYADSVK | VGRGGGWFDY | n.d. / 5.17 / n.d. | 5.17
GFTFDDYAKH | GISWNSGSIHYADSVK | VGRGGRYFDY | n.d. / n.d. / n.d. | n.d.
GFTFDDYPMH | GISWNSGSIGYATSVK | VGRGGGYSDY | 4.57 / 4.92 / 4.66 | 4.71
GFTFDDYAMF | GISWNSGSHGYADSVK | VGRGGGYFDK | n.d. / n.d. / n.d. | n.d.
GFTFDIYAMH | GISWNSGSIGYADSVK | VQRFGGYFDY | n.d. / n.d. / n.d. | n.d.
GFTFDDYMMH | GISWNSGSIGYADSVK | NGRDGGYFDY | n.d. / n.d. / n.d. | n.d.
GFHFDDYAMH | GISWNSGSIGYADSVK | VGRGGGQFDY | 0.63 / 0.44 / 0.00 | 0.36
NFWFDDYAMH | GISWNPGSIGYADSVK | VGRGGGYFDY | 4.27 / 5.88 / 5.37 | 5.17
GFTFDDYAMH | GISWNAGSIGYADSVK | VYRYGGYFDY | 5.11 / 4.58 / 4.18 | 4.62